Data taken from PMC5106031.

Target: A2AR-CFP (UniProt P29274)
Assay: FRET or BRET; acceptor photobleaching FRET in transfected HEK293 cells fixed with 4% PFA; CFP donor, YFP acceptor; confocal microscope; in Fig 5 cells treated with Istradefylline (30 nM, 0-60 min; or 10-100 nM, 30 min) or CGS 21680 HCl

FRET efficiency: 0.17
Substance: YFP-PS1 (from UniProt P49768 1-467) (natural protein)
